Source: patent publication US9062308B2, “Compositions and methods for treatment of tamoxifen resistant breast cancer” (The Johns Hopkins University, priority 2011, dated 2015)

Test system: TGFα and HB-EGF
Assay: TGFα and HB-EGF expression in MCF-10A-B7 cells under EGFR inhibition
Type: cell-based

COc1cc2ncnc(Nc3ccc(F)c(Cl)c3)c2cc1OCCCN1CCOCC1 [gefitinib]
elevated expression of TGFα and HB-EGF: significantly abrogated
